{"sequences": {"note": "Chains of the proteins cited; added tags and fusions are not shown. Lines headed by an entry give the natural chain unless they say otherwise; changes in a name come on top.", "UniProt P30550": "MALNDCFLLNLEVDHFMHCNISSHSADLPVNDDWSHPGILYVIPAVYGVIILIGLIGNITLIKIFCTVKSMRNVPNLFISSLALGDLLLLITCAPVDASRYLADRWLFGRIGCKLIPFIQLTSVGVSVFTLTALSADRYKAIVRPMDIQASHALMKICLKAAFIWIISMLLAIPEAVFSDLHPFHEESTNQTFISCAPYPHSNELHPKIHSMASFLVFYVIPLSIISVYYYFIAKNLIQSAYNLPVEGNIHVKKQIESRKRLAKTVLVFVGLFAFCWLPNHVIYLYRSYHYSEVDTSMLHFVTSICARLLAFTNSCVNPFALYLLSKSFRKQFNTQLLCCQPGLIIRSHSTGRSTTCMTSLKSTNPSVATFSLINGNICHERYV"}, "source": "paper PMC11571012", "about": "“Synthesis and Preclinical Evaluation of a Bispecific PSMA-617/RM2 Heterodimer Targeting Prostate Cancer” (ACS Medicinal Chemistry Letters, 2024)", "origin": "cited, not measured here", "molecular_target": "GRPR in PC-3 cells (PSMA-, GRPR+) (Homo sapiens, UniProt P30550)", "conditions": "read-out: IC50 of standard radioligand (GRPR); standard used at C = 50 pM; no reference given; cited from earlier work"}
{"substance": "125I-[Tyr4]-BN (QQRYGNQWAVGHLM) [^125I-bombesin]", "values": [{"measurement": "IC50", "value": 0.4, "unit": "nM"}]}
